Results as given in ChEMBL document CHEMBL4257536, “Pharmacophore-based tailoring of biphenyl amide derivatives as selective 5-hydroxytryptamine 2B receptor antagonists” (Medchemcomm, 2018).

Organism: Homo sapiens
Test: Selectivity ratio of Ki for human 5HT1B receptor to Ki for human 5HT2B receptor
How it was run: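 Ki values from radioligand displacement run in triplicate, using [3H]GR127543 for 5-HT1B and [3H]LSD for 5-HT2B. The ratio compares the 5-HT1B Ki to the 5-HT2B Ki.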

Compound: O=C(NCCc1c[nH]c2ccccc12)C1CCN(C(=O)c2ccc(-c3ccccc3)cc2)CC1
- Ratio Ki: > 750
